Screening results from PubChem.
A selection: hits, their analogues and other compounds. The true share with any hit is near 3.7%.
A549 viability: counter-screen for Nrf2 inhibitors: cytotoxicity in A549 cells; 0.16% of 390,000 active; Potency, µM (highest dose often 46 µM), for inactives: top-dose activity change, negative = cytotoxicity, usual class: inhibitors; A549 ARE-Fluc cells, CellTiter-Fluor viability, 18-24 h; note: potency is the fitted concentration of half-maximal effect; % is set by controls: 0 for no effect and ±100 for the full control effect
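Cytotoxicity counterscreen: CellTiter-Fluor fluorescence was measured in A549 ARE_Fluc cells after 18-24 h of compound exposure in a concentration series. The subsequent BugLite luminescent read reports ARE-luciferase activity.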
miR-21 FLuc: miR-21 reporter, rising signal. HeLa miR-21 FLuc reporter, luciferase, 48 h. Potency, µM (titrated, usually from 38.3 µM), without a hit: at the top dose reporter change, positive = more light. 340,000 tested, under 10 active. AID 2288; active = well fitted rising curve with a large enough effect; inconclusive = small, poorly fitted or top-dose-only effect; inactive = no such curve, though single readings can be large or run the other way;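 also: % of control where 0% means no effect; miR-21 action dims this reporter so a rising signal means less miR-21 action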
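HeLa cells stably expressing CMV-driven firefly luciferase with a downstream miR-21 binding sequence, endogenously expressing miR-21, were treated with titrations (up to about 40uM final) for 48 hours at 37 degree Celsius. Luciferase luminescence was read after lysis.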
Nrf2 inh: Nrf2 pathway inhibition; A549 ARE-Fluc reporter, luciferase luminescence, 18-24 h; Potency, µM (doses to about 46 µM), for the others: at the highest dose activity change, negative = inhibition, actives largely listed as inhibitors; 2.1% of 360,000 active; note: potency is the fitted concentration of half-maximal effect; % is set by controls: 0 for no effect and ±100 for the full control effect; nearly all actives have a fitted effect of over 60% in size
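Concentration-response testing used A549 ARE_Fluc cells at 5000 cells/well. Following an 18-24 h compound incubation, viability was read by fluorescence (Ex 405/Em 525) and luciferase output by luminescence.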
IL2 activator: IL-2 activation; IL-2 activation reporter assay, cell-based qHTS; stimulated with anti-CD3/CD4/CD28 beads; in transgenic mouse T cells; activation, % (series mostly up to about 46 µM); 0.065% of 360,000 active; in the data active = activation above about 50%; inconclusive = mostly about 30% to 49%; note: 0% is about no effect
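Unstimulated transgenic mouse T cells preincubated 60 min with compound, then stimulated with anti-CD3/anti-CD4-coated beads plus anti-CD28 for 18 h at 37 degrees C. IL-2 response read as EGFP and DsRed fluorescence by plate cytometry.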
Nrf2 ARE act: Nrf2 pathway activation; AREc32 ARE-luciferase reporter (MCF7-derived line), luminescence, 24 h; Potency, µM (highest dose often 46.1 µM), for inactives: top-dose activation, usual class: activators; 0.31% of 410,000 active; AID 624171; note: potency is the fitted concentration of half-maximal effect; % of control where 0% means no effect; nearly all actives have a fitted effect of over 65% in size
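Luminescent ARE reporter assay in AREc32_Fluc cells: overnight plating at 37 deg C, 24 hr compound incubation, Steady-Glo added, 30 min RT before reading.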
ClpP mod: qHTS Assay for Activators of ClpP; ATP-dependent Clp protease proteolytic subunit (Bacillus subtilis (strain 168)), P80244; purified B. subtilis ClpP, FRET peptide cleavage, 20 min; Potency, µM (highest dose often 57.5 µM), for the others: top-dose activity change, negative = active; 1.9% of 340,000 active; active = well fitted falling curve with a large enough effect; inconclusive = small, poorly fitted or top-dose-only effect; inactive = no such curve, though single readings can be large or run the other way; note: potency is the fitted concentration of half-maximal effect; the source files actives as falling curves though it sought activators and does not explain the sign; nearly all actives have a fitted effect of over 65% in size
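Purified B. subtilis ClpP, 10 microg/mL final in Tris/HCl pH8 with KCl, BSA, glycerol and Tween-20, cleaved an Abz/nitrotyrosine-quenched decapeptide. Fluorescence (ex 320, em 430) was read at 0 and 20 min at room temperature. Delta was normalized to 5.8 microM ADEP and DMSO/no-enzyme controls.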
ClpP inh valid: Bacillus subtilis ClpP inhibition, validated hit. shares compounds with ClpP mod. purified B. subtilis ClpP, FRET-FV substrate cleavage, 20 min. Potency, µM (top dose mostly 57.5 µM), without a hit: at the highest dose activity change, negative = inhibition, most hits filed as inhibitors. 40% of 470 active; note: potency is the fitted concentration of half-maximal effect; % is set by controls: 0 for no effect and ±100 for the full control effect; nearly all actives have a fitted effect of over 70% in size
An asterisk follows results filed as active; ? = inconclusive; . = no result; [ ] = remark or other dose. Unless noted, calls come from the whole dose curve; as a rule, active = well fitted curve in the direction sought with a large enough effect; inconclusive = small, poorly fitted or top-dose-only effect, or another doubt; inactive = no such curve, though single readings can be large; an effect the other way counts as inactive or inconclusive.

1: CCC(O)c1cc2c(cc1NC(=O)c1ccccc1F)OCCO2 (stereo unspecified)
2: Cc1cccnc1NC(=O)c1ccc(S(=O)(=O)N2CCCCC2)cc1
3: CCCC(=O)Nc1ccc2oc(-c3ccc(OC)c(Br)c3)nc2c1
4: O=C(Nc1nc2nc(-c3ccccc3)cc(-c3ccccc3)n2n1)c1ccco1
5: Fc1ccc(-n2c(-c3ccco3)nc3nc4ccccc4nc32)cc1
6: Cc1ccc(-n2c(-c3ccco3)nc3nc4ccccc4nc32)cc1F

compound no. | 1 | 2 | 3 | 4 | 5 | 6
IL2 activator | . | -3 | -3 | -2 | -1 | 6
ClpP inh valid | . | 0% | 24µM* | 12µM* | . | ?
A549 viability | 19% | -2% | ? | ? | -1% | 3%
Nrf2 inh | . | -1% | ? | ? | 12% | 4%
Nrf2 ARE act | 0% | 0% | 0% | 6% | 4% | 3%
miR-21 FLuc | -2% | . | -39% | 3% | 0% | -2%
ClpP mod | 2% | 3.5µM* | 8.9µM* | 7.9µM* | ? | 2.8µM*

Brought forward from above: three compounds; new compounds follow.
4: O=C(Nc1nc2nc(-c3ccccc3)cc(-c3ccccc3)n2n1)c1ccco1
5: Fc1ccc(-n2c(-c3ccco3)nc3nc4ccccc4nc32)cc1
6: Cc1ccc(-n2c(-c3ccco3)nc3nc4ccccc4nc32)cc1F
7: COc1cc2c(cc1OC)C(COc1ccc3c(C)cc(=O)oc3c1)N(C(=O)c1ccccc1F)CC2 (stereo unspecified)
8: O=C(CCc1ccccc1)NC1CC(=O)N(c2ccccc2)C1 (stereo unspecified)
9: Cc1ccc(-c2nnc(SCC(=O)NCc3ccccc3)o2)cc1
10: CCN(CC)CCCNC(=O)c1cn(CCOC)c(=O)c2c1c1ccccc1n2C
11: CCN(CC)CCNC(=O)c1cn(CCOC)c(=O)c2c1c1ccccc1n2C
12: COc1ccc(-c2ccc(N(C)C)cc2)cc1[C@H]1[C@H]2C=CC[C@@H](C)[C@@H]2C(=O)N1Cc1ccccc1

compound no. | 4 | 5 | 6 | 7 | 8 | 9 | 10 | 11 | 12
IL2 activator | -2 | -1 | 6 | . | . | . | -2 | -1 | 2
ClpP inh valid | 12µM* | . | ? | ? | . | . | 22µM* | . | 34µM*
A549 viability | ? | -1% | 3% | 1% | -2% | 0% | -2%[1.84 µM] | -1% | -5%
Nrf2 inh | ? | 12% | 4% | 16%[9.27 µM] | . | ? | 1% | 2% | 11%
Nrf2 ARE act | 6% | 4% | 3% | -1% | 0% | 1% | 0% | 0% | -1%
miR-21 FLuc | 3% | 0% | -2% | 1% | -2% | -2% | -4% | 0% | -1%
ClpP mod | 7.9µM* | ? | 2.8µM* | 91% | 1% | 1% | 10µM* | 4% | 2.2µM*

13: COc1ccc(-c2ccc(N(C)C)cc2)cc1C1C2C=CCC(C)C2C(=O)N1Cc1ccccc1 (stereo unspecified)
14: CCOc1ccc(NC(=O)c2oc3ccccc3c2NC(=O)COc2cccc(OC)c2)cc1
15: Cc1ccccc1C(=O)Nc1c(C(=O)Nc2cccc(F)c2)oc2ccccc12
16: CCOc1ccc(CC(=O)Nc2c(C(=O)Nc3ccc(OC)cc3OC)oc3ccccc23)cc1
17: COc1ccccc1NC(=O)c1oc2ccccc2c1NC(=O)c1ccco1
18: CCOC(=O)c1oc2ccccc2c1NC(=O)COc1cccc(OC)c1

compound no. | 13 | 14 | 15 | 16 | 17 | 18
IL2 activator | . | . | . | . | -2 | -3
ClpP inh valid | . | . | . | 19µM* | 22µM* | 19µM*
A549 viability | 0% | 3% | 1% | 6% | 0% | 1%
Nrf2 inh | 11% | -9% | -9% | -5% | . | .
Nrf2 ARE act | . | 0% | 1% | -1% | 4% | 0%
miR-21 FLuc | . | -2% | 4% | 0% | -1% | 1%
ClpP mod | . | 33% | ? | 31% | 148% | 48%

19: O=C(COc1ccccc1F)Nc1c(C(=O)Nc2cccc(F)c2)oc2ccccc12
20: Cc1ccc(NC(=O)c2cc(S(=O)(=O)N3CCc4ccccc43)ccc2F)cc1Cl
21: CCC(C)NC(=O)C1=CC(c2ccc3c(c2)OCO3)=NS(=O)(=O)N1C (stereo unspecified)
22: O=C(O)CCc1ccc(-c2ccccc2)n1-c1cccc(Br)c1
23: O=C(CCn1c(=O)c2cccn2c2cccnc21)NCc1ccccc1F

compound no. | 19 | 20 | 21 | 22 | 23
IL2 activator | . | . | . | . | .
ClpP inh valid | ? | . | . | . | .
A549 viability | 1% | 5% | 7% | -6% | 3%
Nrf2 inh | 0% | . | 9% | 5% | 27%
Nrf2 ARE act | 4% | -1% | -1% | 21% | 5%
miR-21 FLuc | -19% | 13% | -33% | -6% | -8%
ClpP mod | 79% | -6% | -1% | -6% | -14%
